# Columns and labels:
# C40 colon tumor = C40 colon tumor xenograft model (K-ras wild-type)
# C8 colon tumor = C8 colon tumor xenograft model (K-ras wild-type)
substance,measurement,setting,value
cetuximab [Anti-EGFR],"Tumor Volume Reduction, % of Control Ab","C40 colon tumor; C40, K-ras WT, antibodies 10 mg/kg once a week, irinotecan […] twice per week, intraperitoneally, mean +/- SEM",54 ± 8 % of Control Ab
same,effect on tumor growth (in words),"C40 colon tumor; C40, wild-type K-ras tumor, FIGS. 1B, 2B",inhibited tumor growth
same,"Tumor Volume Reduction, % of Control Ab","C8 colon tumor; C8, K-ras WT, antibodies 10 mg/kg once a week, irinotecan […] twice per week, intraperitoneally, mean +/- SEM",47 ± 9 % of Control Ab
same,effect on tumor growth (in words),"C8 colon tumor; C8, wild-type K-ras tumor, FIGS. 1A, 1H, 2A",inhibited tumor growth
